The source of these data is patent publication US8436195B2 (priority 2006, dated 2013).

For the experiment, the system named is cancer cells PC-3 (prostate carcinoma). Nature of the experiment: Mitochondria membranes of PC-3 cancer cells after incubation with preparation. It counts as cell-based. To be noted: PC-3 cells, same dilution, 72 hours at 37° C.; with membrane swelling. The method, then:
A control group was also formed consisting of the same number of vials with the same components except cancer cells, and instead, fibroblasts were put in the group vials. After thermostatting for 72 hours at 37° C. the contents of the above vials was analyzed.

As for “rheaferon: a recombinant α2-interferon produced by a pseudomonade bacterial strain; closest analogue-prototype”, the “partial destruction of mitochondria membranes” value is reported as “about 60%”.
